The text below walks through data of the NIST ThermoML archive (doi:10.1016/j.jct.2012.09.006).

± gives the expanded uncertainty stated by the source.

Data set [1] in a line: Molar enthalpy of transition or fusion. To be noted: Crystal; DSC.
For data set [2] the following is noted: Crystal; DTA.

In the case of `O=C(O)c1ccccc1O` [2-hydroxybenzoic acid], the “Molar enthalpy of transition or fusion” value in data set [1] came to 24.1 ± 0.64 kJ/mol. Besides, in data set [2], the Normal melting temperature came to 158.7 ± 0.9 °C.
